Values of other authors in publication PMC4439582 (Immunity, 2015).
pKd: −log10 of the molar value.

Sequences of proteins named here, by UniProt entry; tags and fusion partners are left off. Residues count along the entry.
UniProt P01589, 22-240, chain 1 of 3: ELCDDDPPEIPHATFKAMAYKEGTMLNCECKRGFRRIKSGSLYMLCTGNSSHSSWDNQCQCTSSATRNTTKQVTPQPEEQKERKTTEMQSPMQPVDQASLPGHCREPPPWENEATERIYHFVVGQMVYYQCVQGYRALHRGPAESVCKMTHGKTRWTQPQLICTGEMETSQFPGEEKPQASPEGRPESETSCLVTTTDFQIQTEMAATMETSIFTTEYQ
UniProt P60568, 21-153: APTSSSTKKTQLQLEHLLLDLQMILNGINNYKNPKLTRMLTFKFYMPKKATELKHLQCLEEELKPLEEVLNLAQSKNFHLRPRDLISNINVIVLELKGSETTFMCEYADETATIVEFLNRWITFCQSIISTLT

Biological target: IL-2Rα/IL-2Rβ/IL-2Rγ (Homo sapiens) (UniProt P01589)
Conditions: cited from earlier work

IL-2 (from UniProt P60568)
pKd: 11.00
